Experimental data as given in patent US20100280098A1, “RECEPTOR TARGETED OLIGONUCLEOTIDES” (priority 2007, published 2010).
“Also recorded” adds a separate entry of the source.

How the values were obtained:
[1] = tested on: A375 melanoma cells containing an inducible luciferase reporter gene; test: In vivo targeting, tumor luciferase by bioluminescence imaging; design: species or system SCID mice; conditions: compared to mice that received saline or free oligonucleotide
Description: Immunodeficient mice (SCID mice) were inoculated with A375 melanoma cells containing an inducible luciferase reporter gene in the right flank. […] However, upon effective delivery of splice shifting antisense oligonucleotide to the cell nucleus, the abnormal intron is spliced out and luciferase protein is produced. Therefore the reporter gene provides an effective readout for delivery of a SSO to a tumor in vivo.
The tumors were allowed to grow to a certain size and then the mice were injected with either saline; RGD-623; or free 623 oligonucleotide (SEQ ID NO: 1). After a period of incubation to allow the SSO to act, the mice were injected with luciferin and the activity of the luciferase in the tumors was monitored by bioluminescence imaging using an IVIS imaging system.

A375SM-Luc705-B cells [2] = test: Confocal microscopy of live cells, albumin conjugates; format: cell-based; conditions: 100 nM
Description: Cellular Uptake and Confocal Microscopy: Cells were seeded onto either 12 well plates at 1×10^5 cells per well for cellular uptake measurements or in 12 well glass-bottom plates at 2×10^4 cells per well for live cell analysis by confocal microscopy. After treatment of cells with Tamra labeled oligonucleotide derivatives for 24 h, the cells were either lysed for measurement of Tamra fluorescence using a Nanodrop microfluorimeter (Nanodrop Technologies, Wilmington, Deleware, United States of America) or washed with DMEM containing 10% FBS and then placed in DMEM without phenol red, supplemented with 1% FBS, for confocal microscopy analysis. Co-localization of Tamra-labeled oligonucleotides with Alexa 488 labeled Transferrin or Dextran (Molecular Probes, Beaverton, Oreg., United States of America) in live cell was also examined by confocal microscopy. An Olympus confocal microscope with a 60× objective lens was used, and the data were processed using Fluoview software (Olympus, Center Valley, Pa., United States of America) as described in Example 1.

Micrococcal nuclease = Micrococcal nuclease (Staphylococcus aureus, UniProt P00644); test: Nuclease stability by polyacrylamide gel; format: in vitro ADME; conditions: 0-12 h, 37° C.
Description: Nuclease Stability: Micrococcal nuclease (4000 gel units) was added to solutions of 623-Tamra or RPA-623-Tamra and the samples were incubated for various periods of time at 37° C. The reactions were then stopped by the addition of EDTA (50 mM), and the fluorescent samples were analyzed on 10% polyacrylamide gels and examined under long-wavelength ultraviolet illumination to detect possible nucleolytic cleavage of the Tamra-labeled oligonucleotides.

A375SM-Luc705-B cells [3] = tested on: A375SM-Luc705-B cells
[4] = Molecular size by size-exclusion FPLC and quasi-elastic light scattering; format: physicochemical
A375SM-Luc705-B cells [5] = test: Luciferase splice-correction assay with albumin conjugates; format: cell-based; conditions: for luciferase activity: 25-200 nM, 72 h
Description: Oligonucleotide Treatment of Cells and Luciferase Assay: A375SM-Luc705-B cells were seeded onto 12 well plates at 1×10^5 cells per well in medium containing 10% FBS. After 24 h, cells were rinsed, placed in OPTI-MEM (Invitrogen, Carlsbad, Calif., United States of America) and treated with free 623 oligonucleotide, various versions of the albumin-PEG-623 oligonucleotide conjugates, or 623 oligonucleotide complexed with LIPOFECTAMINE™ 2000 (Invitrogen, Carlsbad, Calif., United States of America) per manufacturer's instruction. After 4 h of treatment, FBS was added to each well to 1%. After 24 h, cells were washed with DMEM medium containing 10% FBS and incubated in DMEM supplemented with 1% FBS for 48 h prior to harvest. Activation of luciferase gene expression due to correction of splicing by oligonucleotide 623 was determined using a Luciferase assay kit (Promega, Madison, Wis., United States of America) on a Monolight 2010 instrument (Analytical Luminescence Laboratory, San Diego, Calif., United States of America)

A375SM-Luc705-B cells [6] = tested on: A375SM-Luc705-B cells; remark: listed apart in the source

Substance: RGD-623: RGD conjugate of 623 injected into tumor-bearing mice; FIG. 21 legend calls it RGD-PEG-HSA-623
- luciferase activity in the tumor [1]: substantial increase in luciferase activity

Substance: RPA-623-Tamra: RPA-623 in which the 623-SH included a 3′-Tamra fluorophore
- fluorescence overlap with dextran (A375SM-Luc705-B cells [2]; 2 h): substantial overlap
- fluorescence overlap with transferrin (A375SM-Luc705-B cells [2]; 2 h): little overlap
- fluorescence overlap with transferrin and dextran (A375SM-Luc705-B cells [2]; 24 h): fluorescence overlap in both cases
- intracellular Tamra fluorescence (A375SM-Luc705-B cells [2]; live cells, 24 h): substantial intracellular Tamra fluorescence
- nuclear accumulation of Tamra fluorescence (A375SM-Luc705-B cells [2]; live cells, 24 h): as well as in the nucleus; also recorded: Nuclear accumulation of Tamra fluorescence was observed
- nuclear accumulation of Tamra fluorescence (A375SM-Luc705-B cells [2]; live cells, 24 h, listed as RGD-PEG-HSA-623-Tamra conjugate): Tamra fluorophore accumulated in nuclei
- stability to micrococcal nuclease (Micrococcal nuclease): no loss of Tamra-labeled oligonucleotide

Substance: RPA-623: RGD-PEG-human serum albumin conjugate carrying 623 oligonucleotides through cleavable disulfide
- acute (short-term) toxicity (A375SM-Luc705-B cells [3]): little acute or long-term toxicity
- average radius relative to unmodified albumin carrier [4]: about 2.7 times
- hydrodynamic radius ([4]; estimated): approximately 6 nm
- magnitude of the effect compared with LIPOFECTAMINE™ complex (A375SM-Luc705-B cells [5]): almost equaled that of the LIPOFECTAMINE™ complex
- time course of luciferase activation (A375SM-Luc705-B cells [5]; 200 nM): rose gradually, attained a maximum at 72 h post-treatment, and then gradually declined
- time of maximum luciferase activity (A375SM-Luc705-B cells [5]; 200 nM, post-treatment): 72 h
- luciferase activity (A375SM-Luc705-B cells [5]): concentration-dependent increase in luciferase activity
- long-term toxicity (colony formation) (A375SM-Luc705-B cells [6]): little acute or long-term toxicity

Substance: RPA-MM: RGD-PEG-albumin conjugate with mismatched oligonucleotide (SEQ ID NO: 2)
- luciferase activity (A375SM-Luc705-B cells [5]): failed to achieve an effect

Substance: CPA-623: albumin-623 conjugate where the PEG chains were terminated with cysteine
- luciferase activity (A375SM-Luc705-B cells [5]): failed to achieve an effect
